Source: PubChem BioAssay (National Center for Advancing Translational Sciences (NCATS))
In the library only some 16% were active in any assay of this set; here they are far more common.
DT40 TDP1 no CPT = qHTS for Inhibitors of human tyrosyl-DNA phosphodiesterase 1 (TDP1): qHTS in cells in absence of CPT; DT40 Tdp1-/- hTDP1 cells, no CPT, ATP luminescence, 48 h; Potency, µM (series often up to 46.2 µM), for the others: at the top dose activity change, negative = growth inhibition, actives largely listed as inhibitors; 420,000 tested, 15% active; further: potency means the concentration at half of the fitted maximal effect; on the % scale 0 is the no-effect control and ±100 the full control effect; nearly all actives have a fitted effect of over 55% in size
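Growth of hTDP1-complemented DT40 Tdp1-knockout cells is measured by ATP luminescence after at least 48 hr compound exposure at 37 °C, with DMSO substituting for the 20 nM CPT used in the parallel screen.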
TDP1 block = inhibitors of human tyrosyl-DNA phosphodiesterase TDP1 | Potency, µM (doses to about 130 µM), without a hit: at the top dose activity change, negative = inhibition, most hits filed as inhibitors | recombinant TDP1, AlphaScreen DNA substrate cleavage | AID 485290 | 350,000 tested, 0.28% active | Q9NUW8; further: potency means the concentration at half of the fitted maximal effect; on the % scale 0 is the no-effect control and ±100 the full control effect; nearly all actives have a fitted effect of over 40% in size
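Enzyme-compound mixtures sat 15 min at room temperature, followed by a 5 min reaction with 15 nM final substrate and 10 min with AlphaScreen beads. Recombinant human Tdp1 was used at 1 nM final.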
DT40 TDP1 CPT = growth inhibition of DT40 Tdp1-/-;hTDP1 cells with camptothecin (screen for TDP1 inhibitors). 420,000 tested, 12% active. AID 686979. Potency, µM (titrated, usually from 46.2 µM), for inactives: at the top dose activity change, negative = growth inhibition, hits mostly inhibitors. chicken DT40 Tdp1-/-;hTDP1 cells + 20 nM CPT, ATP luminescence, 48 h; further: potency means the concentration at half of the fitted maximal effect; on the % scale 0 is the no-effect control and ±100 the full control effect; nearly all actives have a fitted effect of over 55% in size
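Chicken DT40 Tdp1-/- cells stably complemented with human TDP1 were seeded at 400 cells/well in medium containing 20 nM camptothecin, exposed to pin-transferred compounds, and grown at 37 °C for at least 48 hr. Viability was read as ATP luminescence.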
miR-21 reporter = miR-21 reporter, rising signal | AID 2288 | HeLa miR-21 FLuc reporter, luciferase, 48 h | 340,000 tested, under 10 active | Potency, µM (doses to about 38.3 µM), for inactives: at the top dose reporter change, positive = more light; active = well fitted rising curve with a large enough effect; inconclusive = small, poorly fitted or top-dose-only effect; inactive = no such curve, though single readings can be large or run the other way;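 note: % of control where 0% means no effect; miR-21 action dims this reporter so a rising signal means less miR-21 action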
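HeLa miR-21-FLuc reporter line, endogenous miR-21; 2000 cells/well in DMEM/10% FBS; compound titration up to ~40uM final, 48 h, 37 degree Celsius; luciferase detection reagent, 15 min lysis, CCD luminescence.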
uPA generation = blocks generation of uPA at the cell surface; cell surface uPA generation assay, qHTS; Potency, µM (doses to about 38.3 µM), without a hit: at the highest dose activity change, negative = inhibition, usual class: inhibitors; AID 540303; 330,000 tested, 0.31% active; active means well fitted inhibition curve with a large enough effect; inconclusive means small, poorly fitted or top-dose-only effect; inactive means no such curve, though single readings can be large or run the other way; tested in mouse RAW 264.7 cells; further: potency means the concentration at half of the fitted maximal effect; on the % scale 0 is the no-effect control and ±100 the full control effect; nearly all actives have a fitted effect of over 55% in size
Active calls of the source: *; ? = inconclusive; . = no result; [ ] = dose if it differs, or a comment. Unless noted, the call rests on the fitted dose curve; in most records, active means well fitted curve in the direction sought with a large enough effect; inconclusive means small, poorly fitted or top-dose-only effect, or another doubt; inactive means no such curve, though single readings can be large; an effect the other way counts as inactive or inconclusive.

SMILES | DT40 TDP1 no CPT | TDP1 block | DT40 TDP1 CPT | miR-21 reporter | uPA generation
Oc1ccc(C[C@@H]2CNCCN2CC2CCCCC2)cc1 | 23.1µM* | -12.6% | 16.4µM* | . | -3.9%
Cc1ccc(NC(=O)CNCCCN2CCOCC2)cc1S(=O)(=O)N1CCCCC1 | -1.1% | 5.7% | ? | -2.7% | 0.3%
COc1ccc(-c2cc(=O)n(-c3nc4ccccc4[nH]3)[nH]2)cc1 | -78.0% | 10.3% | 35.5µM* | -14.3% | .
COc1ccc(-c2nc3ccccc3[nH]2)cc1 | 13µM* | 2.5% | 10.3µM* | 10.6% | ?
c1ccc(-c2nc3ccccc3[nH]2)cc1 | -17.7% | . | ? | -46.2% | ?
COc1ccc2oc(=Nc3ccccc3)c(-c3nc4ccccc4[nH]3)cc2c1 | ? | 0.6% | 10.3µM* | -52.5% | -8.8%
Nc1cc(N)cc(-c2nc3ccccc3[nH]2)c1 | 18.4µM* | 10.5% | 10.3µM* | -18.6% | -3.1%
COc1ccc(CCCc2nc3ccccc3[nH]2)cc1 | ? | . | -20.6% | -20.2% | -2.3%
c1csc(-c2nc3ccccc3[nH]2)c1 | -21.7% | 7.5% | -22.2% | -37.6% | 2.8%
Cc1ccc(-c2nc3ccccc3[nH]2)s1 | 16.4µM* | 7.8% | 9.2µM* | -19.8% | -7.7%
COC(=O)c1ccc(-c2nc3ccccc3[nH]2)cc1 | 23.1µM* | 2.6% | ? | -10.9% | -7.7%
COC(=O)c1ccc(C(=O)Nc2ccc3nc(-c4ccncc4)[nH]c3c2)cc1 | -12.0% | . | ? | 7.4% | -2.6%
COC(=O)c1ccc(C(=O)Nc2ccc3nc(-c4cccnc4)[nH]c3c2)cc1 | 5.17µM* | -2.1% | -15.9% | 2.7% | 6.7%
CCn1cc([N+](=O)[O-])c(C(=O)N2N=C(c3ccc4ccccc4c3)CC2c2cc(Br)ccc2O)n1 (centres undefined) | 6.51µM* | 9.8% | ? | ? | -6.6%
C#CCOC(=O)C(NC(=O)c1ccccc1)=C(C)C | 1.9% | -0.7% | -4.5% | -6.2% | -0.9%
COc1cc2c(NC3CCN(C)CC3)nc(N3CCCN(C)CC3)nc2cc1OCCCN1CCCCC1 | 10µM* | . | 17.8µM* | . | .
COc1cc2c(NC3CCN(C)CC3)nc(N3CCCN(C)CC3)nc2cc1OCCCC(C)C | 1.12µM* | . | 1.12µM* | . | .
CCCC(=O)N1CCCN(c2nc(N)c3cc(OC)c(OC)cc3n2)CC1 | -20.6% | . | -5.1% | . | .
CCC(C)C(NC(=O)C1CCC(C)CC1)C(=O)NCc1ccccn1 (centres undefined) | -25.9% | 2.3% | -1.7% | 0.9% | -0.4%
OCCN(Cc1ccccc1)Cc1ccccc1Cl | -4.7% | ? | -24.1% | -5.4% | .
OCCN(Cc1ccccc1)Cc1cccc(Cl)c1Cl | ? | 15.8µM* | ? | -11.9% | -0.5%
COc1ccccc1-c1c(-c2ccc(OCC(=O)NN)cc2O)n[nH]c1C(F)(F)F | 13µM* | 0.0% | 9.2µM* | 5.9% | 5.1%
COc1ccc(-c2n[nH]c(C(F)(F)F)c2-c2cc3ccccc3o2)c(O)c1 | 14.6µM* | 1.0% | 13µM* | ? | -16.6%
NNC(=O)COc1ccc(-c2n[nH]c(C(F)(F)F)c2-c2ccc(Br)cc2)c(O)c1 | -16.6% | 2.7% | -4.0% | 26.9% | 3.7%
O=C(NC1CCCCCCC1)C1c2ccccc2C(=O)N1Cc1cccs1 (centres undefined) | ? | 0.0% | 13µM* | 1.2% | 1.5%

Compound profiles, as listed above.
CCCC(=O)N1CCCN(c2nc(N)c3cc(OC)c(OC)cc3n2)CC1 in the list: DT40 TDP1 no CPT = -20.6%; TDP1 block = .; DT40 TDP1 CPT = -5.1%; miR-21 reporter = .; uPA generation = .
OCCN(Cc1ccccc1)Cc1cccc(Cl)c1Cl in the list: DT40 TDP1 no CPT = ?; TDP1 block = 15.8µM*; DT40 TDP1 CPT = ?; miR-21 reporter = -11.9%; uPA generation = -0.5%

Pulled one by one from the list above (2):
SMILES | DT40 TDP1 no CPT | TDP1 block | DT40 TDP1 CPT | miR-21 reporter | uPA generation
COc1ccc2oc(=Nc3ccccc3)c(-c3nc4ccccc4[nH]3)cc2c1 | ? | 0.6% | 10.3µM* | -52.5% | -8.8%
COC(=O)c1ccc(C(=O)Nc2ccc3nc(-c4ccncc4)[nH]c3c2)cc1 | -12.0% | . | ? | 7.4% | -2.6%

Additional entries
SMILES | DT40 TDP1 no CPT | TDP1 block | DT40 TDP1 CPT | miR-21 reporter | uPA generation
CCCCCCCCCCCCC/C=C/[C@@H](O)[C@H](CO)NC(=O)CCCCCCC | -12.3%[4.12 µM] | 2.4% | -1.6%[4.12 µM] | . | .
COc1cc(CN(CCc2c(C)[nH]c3ccc(C)cc23)C(=S)NC(C)(C)C)cc(OC)c1OC | 16.4µM* | 6.6% | 20.6µM* | 8.4% | -14.9%
CNC(=S)N(CCc1c(C)[nH]c2ccc(C)cc12)Cc1ccc(OC)c(OC)c1 | ? | 10.5% | ? | 1.9% | 20.3%
C=C(C)C(=O)Nc1cccc(C2=NOC3(C2)C[C@@H](C(N)=O)N(C(=O)c2ccc(Cl)cc2)C3)c1 (some centres undefined) | -6.2% | 12.6µM* | 5.6% | 6.0% | 3.0%
NC(=O)[C@@H]1CC2(CC(c3cccc(NC(=O)CC(c4ccccc4)c4ccccc4)c3)=NO2)CN1C(=O)COc1ccc(Cl)cc1 (some centres undefined) | ? | -2.4% | 18.4µM* | ? | -6.5%
C=C(C)C(=O)Nc1cccc(C2=NOC3(C2)C[C@@H](C(N)=O)N(C(=O)C2(C)CC2)C3)c1 (some centres undefined) | -14.0% | 11.2µM* | 0.8% | 0.7% | 5.3%
C=C(C)C(=O)Nc1cccc(C2=NOC3(C2)C[C@H](C(N)=O)N(C(=O)COc2ccc(Cl)cc2)C3)c1 (some centres undefined) | -7.5% | 11.2µM* | -0.7% | 6.3% | 9.8%
O=C(COc1ccc2c3c(c(=O)oc2c1)CCCC3)NCc1cccnc1 | 30.2% | 4.8% | -2.0% | 1.6% | 4.5%
CCOC(=O)c1ccc(Nc2nnc3nc(C)cc(C)n23)cc1 | -7.3% | 0.0% | -8.5% | -13.3% | 3.5%
COc1ccc(C)cc1-n1c(N)c(C#N)c(C#N)c1-c1ccc(OC)c(OC)c1OC | -7.5% | 11.3% | -1.9% | -15.5% | 6.2%
Cc1ccsc1C(=O)Nc1ccc2c(c1)OCCO2 | ? | -7.9% | ? | -21.0% | -8.8%
O=C(C[n+]1ccc(C(=O)c2ccccc2)cc1)Nc1ccccc1OC(F)F | 16.4µM* | 0.2% | ? | . | 0.6%
O=C(C[n+]1cccc(NC(=O)c2ccccc2)c1)c1cccc([N+](=O)[O-])c1 | ? | 1.2% | ? | -2.4% | -3.6%
O=C(C[n+]1ccc(C(=O)c2ccccc2)cc1)Nc1cccc([N+](=O)[O-])c1 | 16.4µM* | . | 20.6µM* | . | .
O=C(C[n+]1ccc(-c2cc(C(=O)Nc3cccc(C(F)(F)F)c3)c3ccccc3n2)cc1)c1cccc([N+](=O)[O-])c1 | 23.1µM* | 2.7% | ? | 15.5% | 0.0%
Cc1cccc(-c2nc(SCC(=O)Nc3cccc(C(F)(F)F)c3)n3[nH]c(=O)cc3n2)c1 | -5.5% | . | -4.7% | 2.2% | .
Cc1ccnc(-n2c(C)cc(C=O)c2C)c1 | 18.8% | 4.8% | ? | -3.4% | 5.4%
CCCCC[C@H](O)/C=C/[C@@H]1[C@@H](CC(=O)CCCCC(=O)O)[C@@H](O)C[C@H]1O | 8.9%[4.12 µM] | 2.4% | -2.3%[4.12 µM] | . | .
CCC(C)NC(=O)CSc1nnc(-c2ccc(C)cc2)c(-c2ccc(C)cc2)n1 (centres undefined) | ? | 7.8% | ? | 10.0% | .
COc1ccc(-c2cc(C(F)(F)F)nc(SCC(=O)N(C)Cc3cn(C)nc3C)n2)cc1OC | 11.6µM* | -1.9% | 18.4µM* | -20.2% | -7.4%
COCCn1c(-c2ccc(Cl)cc2)cnc1SCC(=O)NCCc1ccc(OC)c(OC)c1 | ? | 4.2% | 20.6µM* | 15.4% | -0.2%
